According to patent US20130289023A1, “METHOD FOR TREATING BRAIN TUMOR” (priority 2012, published 2013):

Test system: GBM8401 cells
Assay: MTT cell viability assay in GBM8401
Conditions: 10 μM, 72 hr
Method: To examine the cytotoxicity of anti-psychotic drugs on malignant glioma, GBM8401 cells were treated with 21 anti-psychotic drugs at 10 μM, respectively, for 72 hr.

In the case of thioridazine, the “cytotoxicity compared with the other anti-psychotic drugs” value was “more effective in cytotoxicity”.
